Laboratory results published in the kinase profiling compilation of Christmann-Franck et al. (2016).

The chains behind the UniProt entries cited, without tags or fusion partners. Where a name states a change or a piece, a line headed by the entry shows the natural chain unless it says otherwise.
ARAF (human), P10398, UniProt P10398, whole entry Y301D/Y302D, looked up: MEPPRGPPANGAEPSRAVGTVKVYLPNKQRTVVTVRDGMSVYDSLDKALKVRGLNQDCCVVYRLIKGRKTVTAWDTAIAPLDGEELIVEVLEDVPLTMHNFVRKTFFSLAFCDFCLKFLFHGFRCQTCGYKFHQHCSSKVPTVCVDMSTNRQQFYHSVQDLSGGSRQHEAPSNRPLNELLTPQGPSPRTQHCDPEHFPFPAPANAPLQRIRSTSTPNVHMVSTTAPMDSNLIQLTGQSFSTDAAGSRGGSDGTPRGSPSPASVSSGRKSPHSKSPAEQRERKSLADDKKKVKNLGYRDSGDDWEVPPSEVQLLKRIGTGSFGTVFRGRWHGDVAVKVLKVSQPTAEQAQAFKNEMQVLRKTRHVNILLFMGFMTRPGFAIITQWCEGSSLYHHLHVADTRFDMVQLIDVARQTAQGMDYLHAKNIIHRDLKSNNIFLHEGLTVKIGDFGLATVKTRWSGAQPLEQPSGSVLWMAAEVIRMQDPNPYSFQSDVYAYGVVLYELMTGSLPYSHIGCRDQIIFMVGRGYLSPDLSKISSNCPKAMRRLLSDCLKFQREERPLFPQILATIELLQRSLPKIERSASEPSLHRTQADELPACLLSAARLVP
UniProt Q13237: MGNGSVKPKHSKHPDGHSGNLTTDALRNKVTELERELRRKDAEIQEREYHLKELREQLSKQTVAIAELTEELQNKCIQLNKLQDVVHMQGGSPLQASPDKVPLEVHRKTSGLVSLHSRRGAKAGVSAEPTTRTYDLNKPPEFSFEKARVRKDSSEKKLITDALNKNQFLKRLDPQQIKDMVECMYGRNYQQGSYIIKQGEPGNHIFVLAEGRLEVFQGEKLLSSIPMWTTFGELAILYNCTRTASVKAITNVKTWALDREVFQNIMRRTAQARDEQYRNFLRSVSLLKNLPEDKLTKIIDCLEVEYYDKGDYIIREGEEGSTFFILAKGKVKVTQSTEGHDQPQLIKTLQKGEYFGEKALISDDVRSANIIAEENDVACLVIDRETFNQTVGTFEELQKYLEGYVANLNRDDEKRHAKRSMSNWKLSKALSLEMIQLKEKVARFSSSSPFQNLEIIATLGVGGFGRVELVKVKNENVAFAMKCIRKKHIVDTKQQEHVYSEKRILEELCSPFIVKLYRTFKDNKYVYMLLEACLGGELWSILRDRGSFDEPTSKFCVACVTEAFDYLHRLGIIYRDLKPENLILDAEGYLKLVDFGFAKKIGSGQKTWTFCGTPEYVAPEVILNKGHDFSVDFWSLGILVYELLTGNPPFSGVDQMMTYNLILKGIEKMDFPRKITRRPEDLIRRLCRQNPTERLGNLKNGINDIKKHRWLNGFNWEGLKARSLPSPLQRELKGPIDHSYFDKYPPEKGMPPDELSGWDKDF
UniProt Q15418, whole entry, looked up: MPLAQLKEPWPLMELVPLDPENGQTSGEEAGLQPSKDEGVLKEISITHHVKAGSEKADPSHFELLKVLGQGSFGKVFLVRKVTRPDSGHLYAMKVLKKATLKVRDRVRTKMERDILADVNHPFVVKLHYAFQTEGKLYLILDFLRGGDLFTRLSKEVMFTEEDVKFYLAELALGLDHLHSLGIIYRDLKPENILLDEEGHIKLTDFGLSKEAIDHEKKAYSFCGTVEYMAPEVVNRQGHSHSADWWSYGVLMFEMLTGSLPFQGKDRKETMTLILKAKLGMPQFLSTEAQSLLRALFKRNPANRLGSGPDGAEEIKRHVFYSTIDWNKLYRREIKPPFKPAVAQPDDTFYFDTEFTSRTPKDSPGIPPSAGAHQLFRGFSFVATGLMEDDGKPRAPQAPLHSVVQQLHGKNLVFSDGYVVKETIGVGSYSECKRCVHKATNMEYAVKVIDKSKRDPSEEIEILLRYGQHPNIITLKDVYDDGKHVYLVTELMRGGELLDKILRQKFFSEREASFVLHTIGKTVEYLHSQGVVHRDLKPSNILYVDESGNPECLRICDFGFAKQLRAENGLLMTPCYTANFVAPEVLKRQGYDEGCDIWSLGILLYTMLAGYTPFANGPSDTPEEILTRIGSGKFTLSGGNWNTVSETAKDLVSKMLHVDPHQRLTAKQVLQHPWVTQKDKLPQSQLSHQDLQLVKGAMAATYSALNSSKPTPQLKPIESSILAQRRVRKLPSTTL

Key:
Assay in all cases: radiometric filter-binding kinase assay, Kinase HotSpot
Conditions in all cases: compound 0.5 µM; ATP 10 µM
[1] = tested on: ARAF (human), P10398 [Y301D/Y302D]
[2] = biological target: PRKG2 (human) (UniProt Q13237)
[3] = biological target: RPS6KA1 KD1 KD2 (human) (UniProt Q15418)

residual activity [1]	SMILES	residual activity [2]	residual activity [3]
80.8%	O=C1c2ccccc2-[n+]2ccc3c([nH]c4ccccc43)c21	–	–
–	COC(=O)[C@]1(O)C[C@@H]2O[C@@]1(C)n1c3ccccc3c3c4c(c5c6ccccc6n2c5c31)C(=O)NC4	-4.02%	-5.99%
96.7%	COc1cc(OC)c(/C=C2\C(=O)Nc3ccccc32)c(OC)c1	–	–
92.4%	CO[C@H]1[C@@H](OC)C[C@H](C)[C@@H](OC)C2=CC(=O)C=C(NC(=O)/C(C)=C\C=C/[C@H](OC)[C@@H](OC(N)=O)/C(C)=C\[C@@H]1C)C2=O	–	–
